Yeast mating assay 2: variants of the scFv Ab-91

Values reported by Engelhart et al. 2022, doi:10.1038/s41597-022-01779-4 (FLAb copy).

Binding partner: SARS-CoV-2 spike HR2 peptide, sequence PDVDLGDISGINAS.

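The starting antibody came from a phage panning campaign against this peptide. Library AAYL51 holds single substitutions and randomly drawn double and triple substitutions in the CDRs. The assay is AlphaSeq: two haploid yeast populations carry antibody and antigen on their surface. After mating in shaken culture at 30 °C for 16 h, diploids were selected and their barcode pairs sequenced. A regression on co-assayed BCL2-family reference pairs converts the normalised counts of each replicate to an apparent Kd. There are three technical replicates.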

Ab-91 is the parent antibody, in scFv form: VL, then three GGGGS repeats, then VH. The light chain is unchanged in all variants.
VL: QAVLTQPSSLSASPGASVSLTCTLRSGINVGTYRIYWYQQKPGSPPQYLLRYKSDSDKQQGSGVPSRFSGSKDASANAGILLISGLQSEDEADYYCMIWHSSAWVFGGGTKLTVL
VH: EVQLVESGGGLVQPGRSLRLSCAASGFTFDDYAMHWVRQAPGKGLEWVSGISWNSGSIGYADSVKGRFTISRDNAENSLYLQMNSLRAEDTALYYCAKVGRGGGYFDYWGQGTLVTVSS

Changes read parent residue, position, new residue, counted from the first residue of the VH shown. Kd is apparent (estimated from mating counts) and averaged on the log scale over replicates with a signal. Smaller is tighter. "nd" means that the variant was in the library but no mating with the target was seen in any replicate; the authors take this as a sign of poor binding, and no number exists. Three control strains display no target. For library AAYL51, 21% of the pairings with them gave a signal, with a median of 34 µM and one signal in twenty below 1.8 µM, so weak values seen in few replicates may be background. Also given: how often the same scFv was detected with the empty control strains.

changes,Kd (apparent),detected,control signals
A33Q+Y60K+G103W,nd,0/3,2/9
D30M+M34Y+Y60A,nd,0/3,0/9
V99S+G104A,nd,0/3,0/9
D31T+G102L+Y108W,1.4 µM,3/3,4/9
D30F+A33E+G103I,nd,0/3,2/9
Y32K+V99M+G102I,nd,0/3,0/9
A33V+I58S+F106C,200 µM,1/3,1/9
M34D+G59V+F106N,nd,0/3,3/9
G50L+N54A+D62W,300 µM,1/3,1/9
I51L+G56P+G100E,550 µM,2/3,2/9
M34N+A61T+G104D,nd,0/3,1/9
S57M+G59L+S63I,180 µM,3/3,5/9
W53S+Y60R+S63T,340 µM,2/3,4/9
G56D+R101K+D107I,3.3 nM,3/3,4/9
G26M+W53Q+R101V,1.1 µM,2/3,0/9
D31F+G100C+Y108C,420 µM,1/3,2/9
G26D+Y105G,17 µM,1/3,0/9
S63H+Y108N,6.1 nM,3/3,2/9
I51K+G100Y+G104P,nd,0/3,0/9
F27E+I58V+G100S,nd,0/3,0/9
V64G+Y108K,200 nM,3/3,3/9
F27M+I51C+G59K,310 µM,1/3,0/9
V64H+Y108N,nd,0/3,1/9
G26A+I58V+R101L,1.3 µM,3/3,4/9
D31P+G59I+A61I,nd,0/3,2/9
S52Y+V99N+G102D,17 µM,1/3,0/9
M34W+G50L+K65Q,nd,0/3,0/9
S52D+W53V+V99L,12 µM,1/3,0/9
A33D+H35E+F106L,nd,0/3,1/9
A33V+I51L+S63M,1.1 µM,3/3,4/9
S52R+K65S+V99H,36 µM,1/3,0/9
A33I+I58D+A61Y,1.5 mM,1/3,2/9
G102K+Y105V+F106I,nd,0/3,0/9
D30T+K65C,96 nM,3/3,1/9
D30Y+S52K+V64M,120 µM,1/3,2/9
S57A+D62I,2.0 µM,1/3,0/9
G59S+R101T+G103R,nd,0/3,1/9
I51W+S55H+Y105D,nd,0/3,1/9
S63E+Y105I+Y108E,840 nM,1/3,0/9
F27D+F106T,nd,0/3,4/9
W53C+A61H,7.0 µM,3/3,7/9
F29E+Y32P+G104N,69 µM,3/3,2/9
Y32E+G50M+F106V,59 µM,2/3,6/9
A61N+D62M,660 µM,3/3,4/9
Y32H+M34N+G56D,nd,0/3,0/9
F27C+N54S+G100M,nd,0/3,0/9
Y60A+Y105V,170 nM,3/3,0/9
V64M+G102W,59 µM,2/3,3/9
G50D+A61E,1.0 mM,1/3,5/9
T28K+Y60Q+A61R,610 µM,1/3,0/9
I51F+G56A,55 µM,1/3,2/9
G59T+V64H+G102D,10 µM,1/3,2/9

The 7 strongest on average among those seen in every replicate, once more:

changes	Kd (apparent)	detected	control signals
G56D+R101K+D107I	3.3 nM	3/3	4/9
S63H+Y108N	6.1 nM	3/3	2/9
D30T+K65C	96 nM	3/3	1/9
Y60A+Y105V	170 nM	3/3	0/9
V64G+Y108K	200 nM	3/3	3/9
A33V+I51L+S63M	1.1 µM	3/3	4/9
G26A+I58V+R101L	1.3 µM	3/3	4/9

Parent in this assay: reference entry 72 nM, copy in this library 7.5 nM.